According to ChEMBL document CHEMBL6083289, “Deciphering the Therapeutic Potential of Novel Pentyloxyamide-Based Class I, IIb HDAC Inhibitors against Therapy-Resistant Leukemia” (J Med Chem, 2024):
The source made the active and inactive calls. No cut-off for these calls is given here.

Chains of the proteins cited; added tags and fusions are not shown.
UniProt Q13547, whole entry: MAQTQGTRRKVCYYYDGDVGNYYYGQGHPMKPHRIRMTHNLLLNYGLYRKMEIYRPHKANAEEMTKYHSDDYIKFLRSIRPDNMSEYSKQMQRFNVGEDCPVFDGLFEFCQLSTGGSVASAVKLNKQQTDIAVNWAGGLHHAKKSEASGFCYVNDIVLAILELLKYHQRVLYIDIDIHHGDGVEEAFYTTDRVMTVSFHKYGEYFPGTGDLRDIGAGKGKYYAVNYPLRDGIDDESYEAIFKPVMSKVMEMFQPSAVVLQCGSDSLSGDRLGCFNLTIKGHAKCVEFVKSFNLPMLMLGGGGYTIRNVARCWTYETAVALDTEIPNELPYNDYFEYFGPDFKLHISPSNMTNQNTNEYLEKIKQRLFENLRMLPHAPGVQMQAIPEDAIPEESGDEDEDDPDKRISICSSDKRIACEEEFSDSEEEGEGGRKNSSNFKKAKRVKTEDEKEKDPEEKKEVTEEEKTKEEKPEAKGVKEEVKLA

Legend:
Histone deacetylase 1 = Histone deacetylase 1 (Homo sapiens, UniProt Q13547); test: Inhibition of HDAC1 in human HL-60 cells assessed as increase in histone H3 acetylation at […] incubated for 24 hrs by Western blot analysis; assay type: cell-based; conditions: dose 0.25 µM
[1] = molecular target: T1, Protein deacetylase HDAC6 (Homo sapiens) (UniProt Q9UBN7); test: Inhibition of HDAC6 in human HL-60 cells assessed as increase in alpha-tubulin acetylation at […] incubated for 24 hrs by Western blot analysis; assay type: cell-based; conditions: dose 0.25 µM
T1 sequence (whole entry): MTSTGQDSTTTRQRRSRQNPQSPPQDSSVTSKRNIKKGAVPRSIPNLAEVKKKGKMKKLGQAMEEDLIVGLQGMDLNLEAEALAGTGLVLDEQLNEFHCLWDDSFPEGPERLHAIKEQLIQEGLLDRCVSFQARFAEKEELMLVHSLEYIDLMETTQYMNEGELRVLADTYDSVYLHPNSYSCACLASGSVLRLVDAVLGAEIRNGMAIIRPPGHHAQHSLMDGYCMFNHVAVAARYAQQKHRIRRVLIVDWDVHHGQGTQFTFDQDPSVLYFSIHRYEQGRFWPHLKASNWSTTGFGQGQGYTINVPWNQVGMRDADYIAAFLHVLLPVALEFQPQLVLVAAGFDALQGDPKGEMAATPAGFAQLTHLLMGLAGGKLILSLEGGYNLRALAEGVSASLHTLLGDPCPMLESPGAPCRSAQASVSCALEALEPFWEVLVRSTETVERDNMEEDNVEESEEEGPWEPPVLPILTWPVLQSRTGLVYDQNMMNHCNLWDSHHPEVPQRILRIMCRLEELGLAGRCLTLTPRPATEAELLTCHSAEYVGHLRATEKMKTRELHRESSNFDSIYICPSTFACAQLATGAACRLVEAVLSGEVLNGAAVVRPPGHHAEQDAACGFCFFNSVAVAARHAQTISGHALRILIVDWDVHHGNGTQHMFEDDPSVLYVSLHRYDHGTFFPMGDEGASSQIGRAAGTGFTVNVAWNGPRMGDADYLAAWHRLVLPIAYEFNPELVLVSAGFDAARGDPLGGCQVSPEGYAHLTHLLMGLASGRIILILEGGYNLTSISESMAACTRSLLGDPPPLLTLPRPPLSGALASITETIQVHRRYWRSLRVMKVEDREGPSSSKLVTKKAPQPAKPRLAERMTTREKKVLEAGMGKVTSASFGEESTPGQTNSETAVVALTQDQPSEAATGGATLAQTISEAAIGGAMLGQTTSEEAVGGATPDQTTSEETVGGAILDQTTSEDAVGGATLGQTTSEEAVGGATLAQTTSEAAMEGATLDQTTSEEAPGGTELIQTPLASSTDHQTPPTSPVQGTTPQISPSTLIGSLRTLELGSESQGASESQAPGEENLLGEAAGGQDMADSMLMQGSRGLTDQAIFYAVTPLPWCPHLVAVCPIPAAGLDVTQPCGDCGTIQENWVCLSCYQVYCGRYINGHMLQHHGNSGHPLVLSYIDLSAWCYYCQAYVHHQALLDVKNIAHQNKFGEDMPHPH

Row | Compound | inhibition (Histone deacetylase 1) | inhibition [1]
1 | COc1ccc(-c2csc(C(=O)NOCCCCCC(=O)NO)n2)cc1 | Active | Active
2 | O=C(CCCCCONC(=O)c1nc(-c2ccc(N3CCCC3)cc2)cs1)NO | Active | Active
3 | O=C(CCCCCONC(=O)c1nc(-c2cc3ccccc3o2)cs1)NO | Active | Active
